This is an account of results in US20150354009A1, “COLORECTAL CANCER CLASSIFICATION WITH DIFFERENTIAL PROGNOSIS AND PERSONALIZED THERAPEUTIC RESPONSES” (ECOLE POLYTECHNIQUE FEDERALE DE LAUSANNE (EPFL), priority 2012, published 2015).

The experiment deals with CRC cell lines. As to the kind of experiment: Drug response in cell lines (CellTiter-Glo proliferation, 72 h). The class given is cell-based, human. Particulars: percent proliferation with 3.4 μg cetuximab, normalized to vehicle-treated cells (FIG. 3B). The protocol:
Colon cancer cell lines were grown in DMEM (Gibco, USA) plus 10% FBS (Invitrogen, USA) without antibiotics/antimycotics. All the cell lines were confirmed to be negative for mycoplamsa by PCR (VenorGeM kit, Sigma, USA) prior to use and were tested monthly.
Proliferation was monitored using CellTiter-Glo® assay kit according to the manufacturer's instruction (Promega, Dubendorf, Switzerland) on day 3 (72 h).
In general terms: ATP-based viability assays read luminescence as a measure of living cells.

Take cetuximab: the “sensitivity to cetuximab in the panel of CRC cell lines by subtype” value is recorded as “cell lines sensitive to cetuximab were only present within the TA subtype”.
